The values that follow are results of earlier work, collected in US6809181B2, “Human beta-defensin-3 (HBD-3), a highly cationic beta-defensin antimicrobial peptide” (University of Iowa Research Foundation, priority 2000, dated 2004).

Where two headings read alike, the source gives them in different places.

The subject of one series is Bordetella parapertussis. Details: unit not given beside the values. The note with it: n=46; r9; cited from earlier work.
The next series concerns Campylobacter pylori. Details: unit not given beside the values. As to conditions: n=13; r44; cited from earlier work.
The next series concerns Corynebacterium JK. Details: unit not given beside the values. As to conditions: n=19; r46; cited from earlier work.
Another series relates to Enterococcus faecalis. Also on record: unit not given beside the values. As to conditions: cited from earlier work.
A further series relates to Enterococcus faecium. Details: unit not given beside the values. As to conditions: n=14; r51; cited from earlier work.
In series [1] the test system is Staphylococcus aureus (methicillin resistant). Details: unit not given beside the values. As to conditions: cited from earlier work.
Series [2] relates to Staphylococcus coagulase f. Also on record: unit not given beside the values. The note with it: cited from earlier work.
Series [3] concerns Staphylococcus coagulase f (non β-lactamase producer). Also on record: MIC90: unit not given beside the values. The note with it: n=12; r116; cited from earlier work.
In series [4] the test system is Staphylococcus coagulase f (β-lactamase producer). Details: MIC90: unit not given beside the values. As to conditions: n=38; r118; cited from earlier work.
For series [5], the system named is Staphylococcus epidermidis. Details: unit not given beside the values. The note with it: n=50; r120; cited from earlier work.
The subject of series [6] is Staphylococcus haemolyticus. Also on record: unit not given beside the values. The note with it: n=20; r121; cited from earlier work.
The test system of the next series is Staphylococcus hominis. Also on record: unit not given beside the values. As to conditions: n=20; r122; cited from earlier work.
The next series has as its system Streptococcus pneumoniae. Details: unit not given beside the values. The note with it: cited from earlier work.

With `CC[C@H]1OC(=O)[C@H](C)[C@@H](O[C@H]2C[C@@](C)(OC)[C@@H](O)[C@H](C)O2)[C@H](C)[C@@H](O[C@@H]2O[C@H](C)C[C@H](N(C)C)[C@H]2O)[C@](C)(O)C[C@@H](C)C(=O)[C@H](C)[C@@H](O)[C@]1(C)O` [ERYTHROMYCIN, erythromycin], the MIC90 in the series with Bordetella parapertussis is recorded as 0.25; in the series on Campylobacter pylori it was 0.25; in the series with Corynebacterium JK, 64; with Enterococcus faecalis (n=50, r48) it was 64; in the series on Enterococcus faecalis (n=86, r49), 64; with Enterococcus faecium, 64. The MIC90 in series [1] (n=15, r108) was 64; in series [1] (n=20, r110), 64; in series [2] (n=10, r114), 2; in [2] (n=100, r115), 64; in series [3], 0.25; in [4], 4. Further, the MIC90 (in [5]; in series [6]; in the series on Staphylococcus hominis) was 64 each time. Further, the results for the Range in series [3] and in [4] were 0.03-8 and 0.06-16, respectively. Moreover, the MIC50 in the series with Streptococcus pneumoniae (n=26, r129) is reported as 0.03; in the series with Streptococcus pneumoniae (n=50, r127) it was 0.03; in the series with Streptococcus pneumoniae (n=50, r130), 0.06; in the series on Streptococcus pneumoniae (n=58, r125), 0.06.
